Biological target: T1, YFP-BmOR3 (Bombyx mori, UniProt Q5FBE0 1-439)
T1 construct: BmOR3, pheromone (bombykal) receptor of Bombyx mori; also called N-terminal YFP-tagged BmOR3; YFP-WT-BmOR3; source: HEK293, transfected, in living cells; not shown: YFP, N-terminal, kept
T1 sequence (looked up): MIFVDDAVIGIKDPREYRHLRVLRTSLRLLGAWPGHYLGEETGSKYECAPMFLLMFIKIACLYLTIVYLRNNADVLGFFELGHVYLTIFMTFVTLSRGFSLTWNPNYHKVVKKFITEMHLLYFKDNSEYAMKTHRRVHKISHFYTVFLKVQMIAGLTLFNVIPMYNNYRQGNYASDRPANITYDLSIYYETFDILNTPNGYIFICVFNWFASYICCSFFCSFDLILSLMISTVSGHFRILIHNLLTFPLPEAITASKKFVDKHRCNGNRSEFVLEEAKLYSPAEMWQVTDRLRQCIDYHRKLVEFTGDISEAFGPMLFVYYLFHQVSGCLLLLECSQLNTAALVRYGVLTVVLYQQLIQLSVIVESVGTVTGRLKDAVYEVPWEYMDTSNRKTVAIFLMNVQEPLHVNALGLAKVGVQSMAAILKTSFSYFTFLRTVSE
Test: FRET or BRET; G protein recruitment BRET in living HEK293 cells; YFP-BmOR3 with Gi-Rluc; increasing bombykal for 2 min; net BRET after subtracting cells with Gi-Rluc only; net BRET also without bombykal; BmOrco coexpression without significant effect
Details: partners not purified

EC50 of bombykal for the BRET increase: 11.7 ± 1.19 nM
B1: Gi1-Rluc (natural protein, UniProt P63096 1-354, looked up)
chain: MGCTLSAEDKAAVERSKMIDRNLREDGEKAAREVKLLLLGAGESGKSTIVKQMKIIHEAGYSEEECKQYKAVVYSNTIQSIIAIIRAMGRLKIDFGDSARADDARQLFVLAGAAEEGFMTAELAGVIKRLWKDSGVQACFNRSREYQLNDSAAYYLNDLDRIAQPNYIPTQQDVLRTRVKTTGIVETHFTFKDLHFKMFDVGGQRSERKKWIHCFEGVTAIIFCVALSDYDLVLAEDEEMNRMHESMKLFDSICNNKWFTDTSIILFLNKKDLFEEKIKKSPLTICYPEYAGSNTYEEAAAYIQCQFEDLNKRKDTKEIYTHFTCATDTKNVQFVFDAVTDVIIKNNLKDCGLF
notes: G protein alpha subunit Gi1 (Gαi1); also called Gαi-Rluc; Rluc-tagged Gi protein; source: HEK293, transfected, in living cells
